These results are taken from patent US10072026B2, “Crystalline form of 3-((1R,3s,5S)-3-((7-((5-methyl-1H-pyrazol-3-yl)amino)-1,6-naphthyridin-5-yl)amino)-8-azabicyclo[3.2.1]octan-8-yl)propanenitrile” (priority 2015, dated 2018).

The chains behind the UniProt entries cited, without tags or fusion partners. Where a name states a change or a piece, a line headed by the entry shows the natural chain unless it says otherwise.
UniProt P29597: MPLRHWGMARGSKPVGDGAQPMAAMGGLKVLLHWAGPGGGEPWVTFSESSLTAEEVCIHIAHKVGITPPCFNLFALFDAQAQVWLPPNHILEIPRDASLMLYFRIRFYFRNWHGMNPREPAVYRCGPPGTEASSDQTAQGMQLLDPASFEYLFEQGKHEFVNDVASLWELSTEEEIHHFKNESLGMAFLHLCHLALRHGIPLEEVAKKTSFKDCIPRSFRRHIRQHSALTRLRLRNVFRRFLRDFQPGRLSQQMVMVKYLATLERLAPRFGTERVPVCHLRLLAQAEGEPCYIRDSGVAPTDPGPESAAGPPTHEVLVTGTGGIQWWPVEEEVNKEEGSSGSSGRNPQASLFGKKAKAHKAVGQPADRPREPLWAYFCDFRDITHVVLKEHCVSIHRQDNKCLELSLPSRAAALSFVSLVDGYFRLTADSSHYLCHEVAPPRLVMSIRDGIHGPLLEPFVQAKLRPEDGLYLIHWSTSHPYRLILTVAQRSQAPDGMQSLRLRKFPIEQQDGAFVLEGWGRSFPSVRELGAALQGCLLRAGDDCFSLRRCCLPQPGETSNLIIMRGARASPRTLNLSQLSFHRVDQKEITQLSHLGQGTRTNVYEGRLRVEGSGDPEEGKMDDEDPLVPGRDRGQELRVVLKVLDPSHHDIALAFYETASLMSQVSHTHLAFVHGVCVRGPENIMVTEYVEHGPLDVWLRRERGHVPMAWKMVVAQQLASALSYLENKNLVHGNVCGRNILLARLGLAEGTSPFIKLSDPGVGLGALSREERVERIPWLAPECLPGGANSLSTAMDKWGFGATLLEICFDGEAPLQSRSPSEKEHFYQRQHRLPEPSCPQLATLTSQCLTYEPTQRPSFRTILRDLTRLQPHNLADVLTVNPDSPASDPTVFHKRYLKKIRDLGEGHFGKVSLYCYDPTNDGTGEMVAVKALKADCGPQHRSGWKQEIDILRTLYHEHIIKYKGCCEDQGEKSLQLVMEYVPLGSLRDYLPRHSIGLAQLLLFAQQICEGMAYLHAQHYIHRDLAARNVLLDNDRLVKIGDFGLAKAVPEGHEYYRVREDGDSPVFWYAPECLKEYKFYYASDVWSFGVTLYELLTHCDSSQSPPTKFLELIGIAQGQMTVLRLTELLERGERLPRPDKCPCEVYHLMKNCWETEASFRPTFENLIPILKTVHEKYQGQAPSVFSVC
UniProt O60674: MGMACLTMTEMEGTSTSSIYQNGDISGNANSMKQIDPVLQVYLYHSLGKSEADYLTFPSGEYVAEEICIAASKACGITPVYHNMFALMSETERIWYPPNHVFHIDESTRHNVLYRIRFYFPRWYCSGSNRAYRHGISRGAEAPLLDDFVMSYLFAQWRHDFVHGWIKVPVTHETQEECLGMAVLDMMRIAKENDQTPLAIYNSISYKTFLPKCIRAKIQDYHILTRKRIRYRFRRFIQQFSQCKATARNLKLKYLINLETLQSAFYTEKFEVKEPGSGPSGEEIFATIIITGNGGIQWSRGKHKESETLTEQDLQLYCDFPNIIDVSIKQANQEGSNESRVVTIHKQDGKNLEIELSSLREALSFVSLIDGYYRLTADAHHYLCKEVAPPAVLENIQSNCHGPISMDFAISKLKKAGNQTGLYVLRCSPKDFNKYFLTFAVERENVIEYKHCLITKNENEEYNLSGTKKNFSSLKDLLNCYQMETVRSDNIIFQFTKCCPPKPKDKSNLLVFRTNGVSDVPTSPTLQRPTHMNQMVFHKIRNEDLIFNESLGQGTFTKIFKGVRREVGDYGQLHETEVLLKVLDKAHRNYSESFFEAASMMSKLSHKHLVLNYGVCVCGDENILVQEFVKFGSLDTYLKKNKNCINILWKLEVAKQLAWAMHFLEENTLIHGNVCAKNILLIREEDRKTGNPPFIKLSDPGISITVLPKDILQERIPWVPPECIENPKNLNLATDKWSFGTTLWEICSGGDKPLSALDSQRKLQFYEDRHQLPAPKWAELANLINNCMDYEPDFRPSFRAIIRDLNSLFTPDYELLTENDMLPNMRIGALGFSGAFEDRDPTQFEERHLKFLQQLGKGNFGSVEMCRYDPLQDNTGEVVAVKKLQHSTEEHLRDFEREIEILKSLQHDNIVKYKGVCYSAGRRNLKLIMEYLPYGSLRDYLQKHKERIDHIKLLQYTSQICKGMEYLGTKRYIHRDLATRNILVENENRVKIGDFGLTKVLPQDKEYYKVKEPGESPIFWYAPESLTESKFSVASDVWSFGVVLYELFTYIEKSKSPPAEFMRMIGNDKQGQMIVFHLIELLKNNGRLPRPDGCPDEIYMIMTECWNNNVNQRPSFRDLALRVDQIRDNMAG
UniProt P23458: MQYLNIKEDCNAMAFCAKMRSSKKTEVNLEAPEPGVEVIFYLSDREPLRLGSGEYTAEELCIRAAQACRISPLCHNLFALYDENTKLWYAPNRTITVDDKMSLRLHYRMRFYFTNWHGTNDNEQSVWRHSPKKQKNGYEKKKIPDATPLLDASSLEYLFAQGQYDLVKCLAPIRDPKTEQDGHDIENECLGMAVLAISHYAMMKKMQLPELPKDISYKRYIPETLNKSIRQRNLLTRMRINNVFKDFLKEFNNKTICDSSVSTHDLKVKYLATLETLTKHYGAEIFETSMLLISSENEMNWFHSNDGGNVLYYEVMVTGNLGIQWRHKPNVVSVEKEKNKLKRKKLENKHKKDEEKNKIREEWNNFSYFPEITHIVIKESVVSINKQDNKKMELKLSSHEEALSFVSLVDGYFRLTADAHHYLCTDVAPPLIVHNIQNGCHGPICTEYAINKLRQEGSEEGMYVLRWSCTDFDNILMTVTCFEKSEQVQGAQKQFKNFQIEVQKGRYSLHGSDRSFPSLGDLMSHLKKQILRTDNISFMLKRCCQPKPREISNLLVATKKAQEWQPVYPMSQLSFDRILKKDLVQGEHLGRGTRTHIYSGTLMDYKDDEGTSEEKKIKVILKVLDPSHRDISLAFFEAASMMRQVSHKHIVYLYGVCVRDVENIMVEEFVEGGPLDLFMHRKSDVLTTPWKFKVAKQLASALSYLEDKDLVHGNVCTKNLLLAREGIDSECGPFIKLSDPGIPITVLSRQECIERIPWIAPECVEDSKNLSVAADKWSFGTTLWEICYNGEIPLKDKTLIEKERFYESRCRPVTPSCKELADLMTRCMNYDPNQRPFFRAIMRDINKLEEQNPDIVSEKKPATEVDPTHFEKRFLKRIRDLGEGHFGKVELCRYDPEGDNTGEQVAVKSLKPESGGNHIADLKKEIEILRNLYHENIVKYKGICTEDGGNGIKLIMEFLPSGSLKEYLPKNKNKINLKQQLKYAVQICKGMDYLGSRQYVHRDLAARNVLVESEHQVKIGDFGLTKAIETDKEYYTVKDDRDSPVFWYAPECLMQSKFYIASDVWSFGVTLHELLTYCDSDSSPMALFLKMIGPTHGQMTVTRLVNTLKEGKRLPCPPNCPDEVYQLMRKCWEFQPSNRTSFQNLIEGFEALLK

Each structure is given as a SMILES string. Where two headings read alike, the source gives them in different places.

One experiment has as its target Tyk2 (Homo sapiens (Human), UniProt P29597). The experiment is described as follows: LanthaScreen JAK biochemical assay (Tyk2). (Time-resolved FRET reads energy transfer from a long-lived donor to a nearby acceptor.)
The target of another experiment is JAK2 (Homo sapiens (Human), UniProt O60674). The experiment is described as follows: LanthaScreen JAK biochemical assay (JAK2).
Another experiment deals with JAK1 (Homo sapiens (Human), UniProt P23458). The experiment is described as follows: LanthaScreen JAK biochemical assay (JAK1).
In a further experiment the target is JAK3 (Homo sapiens (Human), UniProt P52333). The experiment is described as follows: LanthaScreen JAK biochemical assay (JAK3).
The mark [1] stands for this setting: read-out: Tyk 2 (pKi) (converted).

Compound `Cc1cc(Nc2cc3ncccc3c(N[C@@H]3C[C@H]4CC[C@@H](C3)N4S(=O)(=O)c3cccnc3)n2)n[nH]1` [Example 3, N^7-(5-methyl-1H-pyrazol-3-yl)-N^5-((1R,3s,5S)-8-(pyridin-3-ylsulfonyl)-8-azabicyclo[3.2.1]octan-3-yl)-1,6-naphthyridine-5,7-diamine] had a Ki on Tyk2 of 1 to 100 nM.

`Cc1cc(Nc2cc3ncccc3c(N[C@@H]3C[C@H]4CC[C@@H](C3)N4S(=O)(=O)N3CCC3)n2)n[nH]1` [Example 4-6]: the Ki on Tyk2 (setting [1]) was 1 to 100 nM.

On to `Cc1cc(Nc2cc3ncccc3c(N[C@@H]3C[C@H]4CC[C@@H](C3)N4S(=O)(=O)C3CNC3)n2)n[nH]1` [Example 4-9], for which the Ki at Tyk2 fell in the range of 1 to 100 nM.

Turning to `CCN1CC(S(=O)(=O)N2[C@@H]3CC[C@H]2C[C@H](Nc2nc(Nc4cc(C)[nH]n4)cc4ncccc24)C3)C1` [Example 4-10], the Ki at Tyk2 (setting [1]) is 1 to 100 nM.

On to `Cc1cc(Nc2cc3ncccc3c(N[C@@H]3C[C@H]4CC[C@@H](C3)N4S(=O)(=O)c3ccccn3)n2)n[nH]1` [Example 4-14], for which the Ki at JAK2, on Tyk2 (setting [1]) and at JAK1 was 1 to 100 nM in each case.

`Cc1cc(Nc2cc3ncccc3c(N[C@@H]3C[C@H]4CC[C@@H](C3)N4C(=O)C(F)F)n2)n[nH]1` [Example 5, 2,2-difluoro-1-((1R,3s,5S)-3-((7-((5-methyl-1H-pyrazol-3-yl)amino)-1,6-naphthyridin-5-yl)amino)-8-azabicyclo[3.2.1]octan-8-yl)ethan-1-one]: on JAK2, the Ki is 1 to 100 nM.

On JAK3, `Cc1cc(Nc2cc3nc(CO)ccc3c(N[C@@H]3C[C@H]4CC[C@@H](C3)N4S(C)(=O)=O)n2)n[nH]1` [Example 5-12] displayed a Ki of 1 to 100 nM.

For the compound `CCC1(S(=O)(=O)N2[C@@H]3CC[C@H]2C[C@H](Nc2nc(Nc4cc(C)[nH]n4)cc4nc(CN5CCC(F)(F)CC5)ccc24)C3)CC1` [Example 5-32], the Ki at JAK2 and on JAK1 was 0.1 to 1 nM throughout.

As to `Cc1cc(Nc2cc3nc(CN4CCC(F)(F)CC4)ccc3c(N[C@@H]3C[C@H]4CC[C@@H](C3)N4CC(F)(F)F)n2)n[nH]1` [Example 5-33], the Ki on JAK2 was 0.1 to 1 nM.

On Tyk2, `Cc1cc(Nc2cc3nc(CN4CCN(C)CC4)ccc3c(N[C@@H]3C[C@H]4CC[C@@H](C3)N4S(=O)(=O)c3cncc(F)c3)n2)n[nH]1` [Example 5-40] displayed a Ki of 1 to 100 nM.

As to `COCCS(=O)(=O)N1[C@@H]2CC[C@H]1C[C@H](Nc1nc(Nc3cc(C)[nH]n3)cc3ncccc13)C2` [Example 6, N^5-((1R,3s,5S)-8-((2-methoxyethyl)sulfonyl)-8-azabicyclo[3.2.1]octan-3-yl)-N^7-(5-methyl-1H-pyrazol-3-yl)-1,6-naphthyridine-5,7-diamine], the Ki on Tyk2 lay within 1 to 100 nM.

In turn, `COc1cnc2cc(Nc3cc(C)[nH]n3)nc(N[C@@H]3C[C@H]4CC[C@@H](C3)N4CC(F)(F)F)c2c1` [Example 6-17] yielded a Ki at JAK2 of 1 to 100 nM.

Consider `COC(=O)c1cnc2cc(Nc3cc(C)[nH]n3)nc(N[C@@H]3C[C@H]4CC[C@@H](C3)N4S(C)(=O)=O)c2c1` [Example 6-33], for which the Ki at JAK3 is 1 to 100 nM.

`Cc1cc(Nc2cc3ncccc3c(N[C@@H]3C[C@H]4CCC[C@@H](C3)N4S(=O)(=O)c3cccnc3)n2)n[nH]1` [Example 8, N^7-(5-methyl-1H-pyrazol-3-yl)-N^5-((1R,3s,5S)-9-(pyridin-3-ylsulfonyl)-9-azabicyclo[3.3.1]nonan-3-yl)-1,6-naphthyridine-5,7-diamine] yielded a Ki on Tyk2 of 0.1 to 1 nM.

With `Cc1cc(Nc2cc3nc(CN4CCOCC4)ccc3c(N[C@@H]3C[C@H]4CC[C@@H](C3)N4CC(F)(F)F)n2)n[nH]1` [Example 15, N^7-(5-methyl-1H-pyrazol-3-yl)-2-(morpholinomethyl)-N^5-((1R,3s,5S)-8-(2,2,2-trifluoroethyl)-8-azabicyclo[3.2.1]octan-3-yl)-1,6-naphthyridine-5,7-diamine], the Ki on Tyk2 and at JAK3 was 0.1 to 1 nM throughout.

At JAK2, `COC(=O)c1cnc2cc(Nc3cc(C)[nH]n3)nc(N[C@@H]3C[C@H]4CC[C@@H](C3)N4C3CCCOC3=O)c2c1` (stereo partly drawn) [Example 16, Methyl 7-((5-methyl-1H-pyrazol-3-yl)amino)-5-(((1R,3s,5S)-8-(2-oxotetrahydro-2H-pyran-3-yl)-8-azabicyclo[3.2.1]octan-3-yl)amino)-1,6-naphthyridine-3-carboxylate] returned a Ki of 1 to 100 nM.
